Screens from PubChem.
Rows were chosen to be rich in hits. Some 2.8% of all compounds tested hit in one or more screens of this group.
PglD inh: blocks C. jejuni PglD acetyltransferase activity | 0.098% of 360,000 active | AID 602405 | purified PglD enzyme, DTNB colorimetric CoA detection | inhibition, % at 12.5 µM; in the data active means inhibition above about 16%, passing the limit was not always enough; inconclusive means no clear call, values can overlap the other calls
esBAF inh: SWI/SNF esBAF complex inhibition; mouse ES cells, Bmi1-luciferase knock-in reporter, 24 h; 100% = twice the neutral-well signal; 2% of 350,000 active; reporter increase, % at 12.5 µM; AID 602393; in the data active means activation above about 40%; inconclusive means no clear call, values can overlap the other calls;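 further: a rise in the Bmi1 reporter signal indicates esBAF inhibition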
UUG fidelity: alters start codon recognition fidelity in yeast. S. cerevisiae UUG-firefly luciferase reporter, luminescence/redox ratio. AID 602363. activity score, % at 18.7 µM. hit rate 0.13% among 350,000;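 active = replicate mean at a twofold rise or more, about +100% in these data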;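 note: firefly luciferase made from a UUG start codon reports start codon fidelity; reporter light over untreated wells divided by growth signal over untreated wells; some hits fall short of that in this replicate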
MITF act: increases MITF-driven TRPM1 promoter luciferase signal | SK-MEL-5 TRPM1-promoter luciferase, 24 h; % of positive control, neutral wells = 0 | activation, % at 12.5 µM | 0.75% of 300,000 active | AID 588334;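 active means mean activation of at least 80% with every replicate also reaching 80%; inconclusive means mean reaches 80% but some replicate falls short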
miR-122 sensor: blocks miR-122 activity in Huh7 sensor cells; Huh7 miR-122 Renilla luciferase sensor, 48 h; neutral wells = 0, positive control = 100; activation (reporter increase), % at 12.5 µM; 0.3% of 340,000 active;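 active means mean replicate activation score at least 90 and every replicate individually at or above 90; inconclusive means only one of the two criteria met; inactive means neither criterion met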;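 further: higher luciferase means less miR-122 activity so hits act as miR-122 inhibitors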
Wnt bcat act: activators of Wnt/beta-catenin signaling; Wnt/beta-catenin reporter cell assay, activator, plate reader; activation, % at 9.35 µM; 1.2% of 300,000 active; in the data active means activation above about 30%, passing the limit was not always enough; inconclusive means no clear call, values can overlap the other calls
Hits are given with their value.

Results for CCOC(=O)C(C)Sc1nnc(-c2c[nH]c3ccccc23)n1C (stereo unspecified) ?
PglD inh: inactive; esBAF inh: inactive; UUG fidelity: inactive; MITF act: inactive; miR-122 sensor: inactive; Wnt bcat act: inactive

How did Cc1ccc(NC(=S)NC(=O)C2CCCC2)c(Br)c1 do in these assays?
PglD inh: inactive; esBAF inh: 67; UUG fidelity: inactive; MITF act: 97; miR-122 sensor: inactive; Wnt bcat act: 53

What do the screens show for `O=C(NC(=S)Nc1ccccc1Br)C1CC1`?
PglD inh: inactive; UUG fidelity: inactive; MITF act: inactive; Wnt bcat act: inactive

Results for Cc1cc(NC(=S)NC(=O)C2CC2)ccc1Br ?
PglD inh: inactive; esBAF inh: 64; UUG fidelity: inactive; MITF act: inactive; miR-122 sensor: inactive; Wnt bcat act: inconclusive

Results for NC(=O)[C@@H]1[C@H]2C(=O)O[C@H](c3ccccc3)[C@H](c3ccccc3)N2[C@H](c2ccc(OCCO)cc2)[C@@]12C(=O)Nc1ccccc12 ?
PglD inh: inactive; UUG fidelity: inactive

How did Cc1cc(C)c(S(=O)(=O)N2CCN=C2c2ccccc2)cc1C do in these assays?
PglD inh: inactive; esBAF inh: inactive; UUG fidelity: inactive; MITF act: inactive; miR-122 sensor: 100; Wnt bcat act: inactive

Results for CCN(CC)S(=O)(=O)c1ccc(C(=O)Nc2cc3oc4ccccc4c3cc2OC)cc1 ?
MITF act: inactive

Results for COc1cc2c(cc1NC(=O)C1CCCO1)oc1ccccc12 (stereo unspecified) ?
PglD inh: inactive; esBAF inh: 57; UUG fidelity: inactive; MITF act: inactive; miR-122 sensor: inactive; Wnt bcat act: inactive

Results for COc1cc2c(cc1NC(=O)c1cccc(S(=O)(=O)N(C)C)c1)oc1ccccc12 ?
PglD inh: inactive; UUG fidelity: inactive; MITF act: inactive; miR-122 sensor: inactive; Wnt bcat act: 41

Results for CCNC(=S)Nc1cc2oc3ccccc3c2cc1OC ?
PglD inh: inactive; esBAF inh: 45; UUG fidelity: inactive; MITF act: inactive; miR-122 sensor: inactive; Wnt bcat act: inactive

Results for Cc1cccc(/C(N)=N/OC(=O)c2cccc3ccccc23)c1 ?
PglD inh: inactive; esBAF inh: 49; UUG fidelity: inactive; MITF act: inactive; miR-122 sensor: inactive; Wnt bcat act: inactive

Results for N/C(=N\OC(=O)c1cccc2ccccc12)c1cccnc1 ?
esBAF inh: 44; MITF act: inactive; miR-122 sensor: inactive; Wnt bcat act: 45

How did C[C@H](O)C#Cc1ccc2c(c1)O[C@@H](CN(C)C(=O)c1ccccc1)[C@H](C)CN([C@H](C)CO)S2(=O)=O do in these assays?
PglD inh: inactive; esBAF inh: inactive; UUG fidelity: inactive; miR-122 sensor: inactive

Results for CC(C)NC(=O)N[C@H]1C=C[C@H](CC(=O)O)O[C@@H]1CO ?
PglD inh: inactive; esBAF inh: inactive; UUG fidelity: inactive

What do the screens show for `O=C(NCC[C@@H]1CC[C@H](NC(=O)C2CCCCC2)[C@@H](CO)O1)c1cc(Cl)cc(Cl)c1`?
PglD inh: inactive; esBAF inh: inactive; UUG fidelity: inactive

How did COC(=O)c1ccc(/C=N/N2CCN(Cc3ccc(Cl)cc3)CC2)cc1 do in these assays?
PglD inh: inactive; UUG fidelity: inactive; miR-122 sensor: inactive; Wnt bcat act: 51

How did O=C(O)c1ccc(/C=N/N2CCN(Cc3ccc(Cl)cc3)CC2)cc1 do in these assays?
MITF act: inactive; miR-122 sensor: inactive; Wnt bcat act: inactive

How did CC(=O)Nc1ccc(C(=O)N2CCCCC2c2cc(C(=O)Nc3cccc(C#N)c3)no2)cc1 (stereo unspecified) do in these assays?
PglD inh: inactive; esBAF inh: inactive; UUG fidelity: inactive; miR-122 sensor: inactive; Wnt bcat act: inactive

Results for N#Cc1ccc(C(=O)N2CCCCC2c2cc(C(=O)Nc3cccc(C#N)c3)no2)cc1 (stereo unspecified) ?
PglD inh: inactive; esBAF inh: inactive; UUG fidelity: inactive; miR-122 sensor: inactive; Wnt bcat act: 36

What do the screens show for `O=C(C[C@@H]1C[C@@H]2c3cc(NC(=O)Nc4ccc(C(F)(F)F)cc4)ccc3O[C@@H]2[C@@H](CO)O1)NCc1cccnc1`?
PglD inh: inactive; esBAF inh: inactive; miR-122 sensor: inactive

How did CCOC(=O)C1(Cc2ccccc2)CCCN(C2CCN(C(C)=O)CC2)C1 (stereo unspecified) do in these assays?
PglD inh: inactive; esBAF inh: inactive; UUG fidelity: inactive; MITF act: inactive; miR-122 sensor: inactive; Wnt bcat act: inactive

What do the screens show for `CCOC(=O)C1(Cc2ccccc2)CCCN(C(=O)COc2ccccc2OC)C1` (stereo unspecified)?
Wnt bcat act: 39

What do the screens show for `CCOC(=O)C1(Cc2ccccc2)CCCN(C(=O)c2cn[nH]c2)C1` (stereo unspecified)?
PglD inh: inactive; esBAF inh: inactive; UUG fidelity: inactive; MITF act: inactive; miR-122 sensor: inactive; Wnt bcat act: inactive

Results for CCOC(=O)C1(Cc2ccccc2)CCCN(C(=O)C=C(C)C)C1 (stereo unspecified) ?
PglD inh: inactive; esBAF inh: 60; UUG fidelity: inactive; MITF act: 88; miR-122 sensor: inactive; Wnt bcat act: inactive

How did Cc1ccc(C2=NN3C(=O)c4ccccc4C3C2)cc1 (stereo unspecified) do in these assays?
esBAF inh: inactive; MITF act: inactive; Wnt bcat act: 39

How did COc1ccc2c(c1OC)C(=O)N1N=C(c3ccc(F)cc3)CC21 (stereo unspecified) do in these assays?
esBAF inh: inactive; MITF act: inactive; miR-122 sensor: inactive; Wnt bcat act: inactive

How did CCOC(=O)N1CCC(Nc2cc(C)nc3c(-c4ccccc4OC)c(C)nn23)CC1 do in these assays?
PglD inh: inactive; esBAF inh: inactive; UUG fidelity: inactive; MITF act: inactive; miR-122 sensor: inactive; Wnt bcat act: inactive

What do the screens show for `COc1ccccc1-c1ccc(NC2CCCC2)nn1`?
PglD inh: inactive; esBAF inh: 63; UUG fidelity: inactive; MITF act: inactive; miR-122 sensor: inactive

What do the screens show for `COc1ccc(CNc2ccc(-c3ccccc3OC)nn2)cc1`?
PglD inh: inactive; esBAF inh: inactive; UUG fidelity: inactive; miR-122 sensor: inactive

What do the screens show for `COc1ccccc1-c1cnn2c(NC3CCCC3)cc(C)nc12`?
PglD inh: inactive; esBAF inh: 62; UUG fidelity: inactive; MITF act: 140; Wnt bcat act: inactive

Results for CCOc1ccc(N2CC(NS(=O)(=O)c3cccs3)CC2=O)cc1 (stereo unspecified) ?
PglD inh: inactive; esBAF inh: inactive; UUG fidelity: inactive; MITF act: inactive; Wnt bcat act: inactive

How did O=C1CC(NS(=O)(=O)c2cccs2)CN1c1ccc(F)cc1 (stereo unspecified) do in these assays?
esBAF inh: 47; MITF act: inactive; miR-122 sensor: inactive; Wnt bcat act: inactive
